Source: US12599649B2, “Bioactive polypeptides for improvements in plant protection, growth and productivity” (priority 2017, dated 2026)
Non-standard residues stand in square brackets, D forms with d. No end group written: not given here. sY = N[C@@H](Cc1ccc(OS(=O)(=O)O)cc1)C(=O)O

Key:
Assay type in all cases: in vivo
corn [1] = assay: Foliar HpaG-like and At.PSKα on corn, plant height in non-stress and stress (Example 27); settings: separate set of replicated trials, HpaG-like 1 μM, At.PSKα 100 nM foliar
corn [2] = assay: Corn seed treatment with Flg22 polypeptides and cellobiose, yield (Example 37); settings: polypeptide at 1.0 μM (combination 0.33 μM each; cellobiose 1 mM)
soybean = assay: Soybean seed treatment with Flg22 polypeptides and cellobiose, yield (Example 38); settings: polypeptide at 1.0 μM (combination 0.33 μM each; cellobiose 1 mM)

Which “Plant Height (cm) Percentage Change Compared to Control (0.01% surfactant) Non-Stress” value (corn [1]) does the source give for “At. PSKα ([sY]I[sY]TQ; listed as Arabidopsis thaliana)” here?
Its value is −11.8%.

And the “Plant Height (cm) Percentage Change Compared to Control (0.01% surfactant) Stress” value (corn [1]; stress)?
Its value is “+6.1%”.

What does the source list for `O=C[C@H](O)[C@@H](O)[C@H](O[C@@H]1O[C@H](CO)[C@@H](O)[C@H](O)[C@H]1O)[C@H](O)CO` [Cellobiose]?
Average Change in Bu/Ac compared to Untreated Control (corn [2]): +11.67 Bu/Ac; Average Yield Bu/Ac (soybean; soybean seed treatment 0.14 Fl. oz per unit, 1 location): 43.98 Bu/Ac; Average Change in Bu/Ac compared to Untreated Control (soybean; soybean seed treatment): +2.87 Bu/Ac
